From ChEMBL document CHEMBL1201862, “PubChem BioAssay data set” (2004)
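Each compound was tested at five concentrations against cells in 96-well plates for 48 hours. GI50 marks 50% less growth.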 Calls of active or inactive are those of the source. Rule as the data show it: active = GI50 up to about 1.1 µM and inactive = higher.

How the values were obtained:
Assay in all cases: NCI tumour cell line growth inhibition, 48 h
[1] = system: BT-549
[2] = system: OVCAR-4
[3] = system: MOLT-4
[4] = system: MDA-MB-435
[5] = system: MDA-MB-231
[6] = system: PC-3
[7] = system: RPMI-8226
[8] = system: SF-268
[9] = system: M14
[10] = system: CCRF-CEM
[11] = system: OVCAR-3
[12] = system: 786-0
[13] = system: NCI-H226
[14] = system: A549
[15] = system: SR
[16] = system: LOX IMVI
[17] = system: IGROV-1
[18] = system: RXF 393
[19] = system: NCI-H23
[20] = system: Hs-578T
[21] = system: COLO 205
[22] = system: HOP-92
[23] = system: HOP-62
[24] = system: SNB-75
[25] = system: HCC 2998
[26] = system: UO-31
[27] = system: HT-29
[28] = system: CAKI-1
[29] = system: SK-MEL-5
[30] = system: HL-60
[31] = system: OVCAR-5
[32] = system: NCI-H460
[33] = system: TK-10
[34] = system: SK-MEL-2
[35] = system: SNB-19
[36] = system: SW-620
[37] = system: HCT-15
[38] = system: NCI/ADR-RES
[39] = system: MCF7
[40] = system: SF-295
[41] = system: SK-MEL-28
[42] = system: Malme-3M
[43] = system: MDA-N
[44] = system: UACC-257
[45] = system: HCT-116
[46] = system: KM12
[47] = system: ACHN
[48] = system: U-251
[49] = system: EKVX
[50] = system: SK-OV-3
[51] = system: OVCAR-8
[52] = system: NCI-H522
[53] = system: SN12C
[54] = system: K562
[55] = system: DU-145

## CC[C@H](C)[C@H](NC(=O)[C@H](CCCCN)NC(=O)[C@@H](NC(=O)[C@H](CCC(N)=O)NC(=O)[C@@H](N)CCCNC(=N)N)[C@@H](C)CC)C(=O)N[C@@H](Cc1c[nH]c2ccccc12)C(=O)N[C@@H](Cc1ccccc1)C(=O)N[C@@H](CCC(N)=O)C(=O)N[C@@H](CC(N)=O)C(=O)N[C@@H](CCCNC(=N)N)C(=O)N[C@@H](CCCNC(=N)N)C(=O)N[C@@H](CCSC)C(=O)N[C@@H](CCCCN)C(=O)N[C@@H](Cc1c[nH]c2ccccc12)C(=O)N[C@@H](CCCCN)C(=O)N[C@@H](CCCCN)C(=O)O
[1]
  GI50: inactive: > 50 µM
[2]
  GI50: inactive: > 50 µM
[3]
  GI50: inactive: > 50 µM
[4]
  GI50: inactive: > 50 µM
[5]
  GI50: inactive: > 50 µM
[6]
  GI50: inactive: > 50 µM
[7]
  GI50: inactive: 21.3 µM
[8]
  GI50: inactive: 43 µM
[9]
  GI50: inactive: > 50 µM
[10]
  GI50: inactive: > 50 µM
[11]
  GI50: inactive: > 50 µM
[12]
  GI50: inactive: > 50 µM
[13]
  GI50: inactive: > 50 µM
[14]
  GI50: inactive: > 50 µM
[15]
  GI50: inactive: > 50 µM
[16]
  GI50: inactive: > 50 µM
[17]
  GI50: inactive: > 50 µM
[18]
  GI50: inactive: > 50 µM
[19]
  GI50: inactive: > 50 µM
[20]
  GI50: inactive: > 50 µM
[21]
  GI50: inactive: > 50 µM
[22]
  GI50: inactive: > 50 µM
[23]
  GI50: inactive: > 50 µM
[24]
  GI50: inactive: > 50 µM
[25]
  GI50: inactive: > 50 µM
[26]
  GI50: inactive: > 50 µM
[27]
  GI50: inactive: > 50 µM
[28]
  GI50: inactive: > 50 µM
[29]
  GI50: inactive: > 50 µM
[30]
  GI50: inactive: 40.1 µM
[31]
  GI50: inactive: > 50 µM
[32]
  GI50: inactive: > 50 µM
[33]
  GI50: inactive: > 50 µM
[34]
  GI50: inactive: > 50 µM
[35]
  GI50: inactive: > 50 µM
[36]
  GI50: inactive: > 50 µM
[37]
  GI50: > 50 µM
[38]
  GI50: inactive: > 50 µM
[39]
  GI50: inactive: > 50 µM
[40]
  GI50: inactive: > 50 µM
[41]
  GI50: inactive: > 50 µM
[42]
  GI50: inactive: > 50 µM
[43]
  GI50: inactive: > 50 µM
[44]
  GI50: inactive: > 50 µM
[45]
  GI50: inactive: > 50 µM
[46]
  GI50: inactive: 44.1 µM
[47]
  GI50: inactive: > 50 µM
[48]
  GI50: inactive: > 50 µM
[49]
  GI50: inactive: > 50 µM
[50]
  GI50: inactive: > 50 µM
[51]
  GI50: inactive: > 50 µM
[52]
  GI50: inactive: > 50 µM
[53]
  GI50: inactive: > 50 µM
[54]
  GI50: inactive: > 50 µM
[55]
  GI50: inactive: > 50 µM
